Target: Apoptosis regulator Bcl-2 (Homo sapiens, UniProt P10415)
Assay: Binding affinity to Bcl-2 (unknown origin) by fluorescence polarization assay

Amino acid sequences for entries named in this document (tags omitted).
UniProt P10415, whole entry: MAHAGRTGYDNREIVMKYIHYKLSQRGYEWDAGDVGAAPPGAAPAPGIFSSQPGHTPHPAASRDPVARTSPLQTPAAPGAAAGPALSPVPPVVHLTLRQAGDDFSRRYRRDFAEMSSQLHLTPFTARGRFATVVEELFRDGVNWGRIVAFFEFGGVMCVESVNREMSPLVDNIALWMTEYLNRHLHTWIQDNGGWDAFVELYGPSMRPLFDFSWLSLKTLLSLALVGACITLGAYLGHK

Ki: < 1 nM
SMILES: CC1(C)CCC(c2ccc(Cl)cc2)=C(CN2CCN(c3ccc(C(=O)NS(=O)(=O)c4ccc(N[C@H](CCN5CCOCC5)CSc5ccccc5)c(S(=O)(=O)C(F)(F)F)c4)cc3)CC2)C1 [NAVITOCLAX]
